This is an account of results in patent publication US12172993B2 (priority 2018, dated 2024).

One data set has as its target SRC (GST-HIS-tag) (Homo sapiens (Human), UniProt P12931). The data set is classed as biochemical.
Data set [1] has as its system MC38 colorectal carcinoma cells. Conditions: 100 mg/kg once daily (QD) p.o.
A short description of another data set: in vivo. As to conditions: male, CD1, mouse, plasma, iv, 1 mg/kg.
For another data set, the target named is Aurora B (Homo sapiens (Human), UniProt Q96GD4). The data set is described as follows: biochemical. As to conditions: read-out: Residual activity (%) at 1 μM.

By IC50 is commonly meant the concentration at which inhibition is half-maximal. The low end stands for higher potency, the high end for lower potency. For `Cc1nc(Nc2ncc(C(=O)Nc3c(C)csc3Cl)s2)cc(N2CCN(CCO)CC2)n1` [Compound C7, N-(2-chloro-4-methylthiophen-3-yl)-2-((6-(4-(2-hydroxyethyl)piperazin-1-yl)-2-methylpyrimidin-4-yl)amino)thiazole-5-carboxamide], on SRC (GST-HIS-tag), the IC50 was < 1.5 nM. The “tumour growth inhibition vs vehicle control” value in data set [1] amounted to 29%.
As usually defined, the AUC(0-inf) is the area under the concentration-time curve extrapolated to infinity. Read a high AUC(0-inf) as high exposure. `Cc1nc(Nc2ncc(C(=O)Nc3c(C)cccc3Cl)s2)cc(N2CCN(CCO)CC2)n1` [Compound A8, N-(2-chloro-6-methylphenyl)-2-((6-(4-(2-hydroxyethyl)piperazin-1-yl)-2-methylpyrimidin-4-yl)amino)thiazole-5-carboxamide, reference compound] returned an area under the curve AUC(0-inf) in the data set “in vivo” of 1060 nM·h. Moreover, the remaining activity at 1 µM on Aurora B worked out at 90%.
Take `Cc1nc(Nc2ncc(C(=O)Nc3c(Br)ccnc3C)s2)cc(N2CCN(CCO)CC2)n1` [Compound C3, N-(4-bromo-2-methylpyridin-3-yl)-2-((6-(4-(2-hydroxyethyl)piperazin-1-yl)-2-methylpyrimidin-4-yl)amino)thiazole-5-carboxarmide]: the half-maximal inhibitory concentration (IC50) at SRC (GST-HIS-tag) was < 2 nM.
